pEC50, pIC50: −log10 of the molar value.
Legend:
human VPAC2 = biological target: T1, human VPAC2 (Homo sapiens, UniProt P41587); assay: Filter binding assay, membranes of stable VPAC2 cell line, 125I-labeled VIP tracer; details: read-out: Human receptor binding IC50 VPAC2; 125I-VIP tracer
T1 construct: expressed in transfected cells
T1 sequence (P41587 24-438): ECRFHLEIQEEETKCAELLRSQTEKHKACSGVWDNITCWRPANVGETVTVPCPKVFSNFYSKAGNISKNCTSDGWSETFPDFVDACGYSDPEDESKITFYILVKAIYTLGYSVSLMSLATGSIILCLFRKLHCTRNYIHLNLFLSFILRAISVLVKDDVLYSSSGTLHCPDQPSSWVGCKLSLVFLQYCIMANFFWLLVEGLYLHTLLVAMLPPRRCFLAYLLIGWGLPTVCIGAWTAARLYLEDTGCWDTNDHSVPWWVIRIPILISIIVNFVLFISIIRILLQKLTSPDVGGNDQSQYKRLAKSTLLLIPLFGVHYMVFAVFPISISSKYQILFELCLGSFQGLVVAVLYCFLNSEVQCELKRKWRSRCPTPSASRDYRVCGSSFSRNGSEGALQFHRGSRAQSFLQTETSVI
Description: In order to prepare the filter plates, the presoak solution is aspirated by vacuum filtration. The plates are flushed twice with 200 μL flush buffer. 200 μL blocking buffer is added to the filter plate.
The filled plate is incubated for 1 hour with shaking.
(§1) The transfer from assay plate to filter plate is conducted. The blocking buffer is aspirated by vacuum filtration and washed two times with flush buffer. 90 μL is transferred from the assay plate to the filter plate. The 90 μL transferred from assay plate is aspirated and washed three times with 200 μL flush buffer. The plastic support is removed. It is dried for 1 hour at 60° C. 30 μL Microscint is added. The count is performed.
(§2) Values reported are single results or the mean of two or more independent runs.

human PAC1 [1] = biological target: T2, human PAC1 (Homo sapiens, UniProt P41586); assay: Filter binding assay, membranes of cells transiently transfected with human PAC1, 125I-labeled PACAP-27 tracer; design: expressed in transfected cells; host or cells: membranes of transiently transfected cells; details: 125I-PACAP-27 tracer; read-out: Human receptor binding IC50 PAC1
T2 sequence (P41586 21-468): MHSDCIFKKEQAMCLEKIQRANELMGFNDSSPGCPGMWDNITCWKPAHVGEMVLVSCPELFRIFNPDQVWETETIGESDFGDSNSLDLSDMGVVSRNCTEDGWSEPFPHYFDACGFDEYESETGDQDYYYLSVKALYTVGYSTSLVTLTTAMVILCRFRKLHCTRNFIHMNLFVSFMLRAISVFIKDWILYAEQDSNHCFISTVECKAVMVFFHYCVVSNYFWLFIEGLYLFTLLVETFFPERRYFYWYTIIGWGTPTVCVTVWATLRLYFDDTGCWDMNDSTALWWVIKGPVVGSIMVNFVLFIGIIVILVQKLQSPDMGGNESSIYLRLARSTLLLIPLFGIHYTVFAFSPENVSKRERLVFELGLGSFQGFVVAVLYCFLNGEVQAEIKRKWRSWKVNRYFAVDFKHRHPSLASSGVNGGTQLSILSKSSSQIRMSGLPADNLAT
Description: In order to prepare the filter plates, the presoak solution is aspirated by vacuum filtration. The plates are flushed twice with 200 μL flush buffer. 200 μL blocking buffer is added to the filter plate. The filter plate is then incubated with 200 μL presoak solution for 1 hour at room temperature.
The assay plate is filled with 25 μL assay buffer, 25 μL membranes (2.5 μg) suspended in assay buffer, 25 μL compound (agonist) in assay buffer, and 25 μL tracer (about 40000 cpm) in assay buffer. The filled plate is incubated for 1 hour with shaking.
as §1, §2

human PAC1 [2] = biological target: T2, human PAC1; assay: DiscoveRx cAMP in vitro potency, CHO-PO cells transiently transfected with human PAC1; assay type: cell-based; design: expressed in transfected cells; host or cells: CHO-PO (transient, Lipofectamine); details: cAMP generation, read-out: Human PAC1R: DiscoveRx EC50
rat VPAC2 receptor = biological target: T3, rat VPAC2 receptor (Rattus norvegicus, UniProt P35000); assay: DiscoveRx cAMP potency, CHO-PO cells transiently transfected with rat VPAC2; assay type: cell-based; details: read-out: rVPAC2 EC50 (DiscoveRx)
T3 construct: expressed in transfected cells; host or cells: CHO-PO (transient)
T3 sequence (P35000 23-437): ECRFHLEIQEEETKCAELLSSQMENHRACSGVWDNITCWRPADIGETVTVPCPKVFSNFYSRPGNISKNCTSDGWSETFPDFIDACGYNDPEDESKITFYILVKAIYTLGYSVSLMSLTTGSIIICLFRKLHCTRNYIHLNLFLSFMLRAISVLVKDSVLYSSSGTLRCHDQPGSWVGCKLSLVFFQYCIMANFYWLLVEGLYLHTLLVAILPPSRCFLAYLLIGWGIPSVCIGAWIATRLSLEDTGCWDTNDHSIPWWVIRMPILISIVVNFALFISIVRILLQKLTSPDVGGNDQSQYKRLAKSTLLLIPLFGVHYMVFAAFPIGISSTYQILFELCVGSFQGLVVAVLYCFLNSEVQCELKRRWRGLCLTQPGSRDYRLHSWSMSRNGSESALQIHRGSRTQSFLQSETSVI
Source text: Rat receptor selectivity was estimated by comparing functional potency (cAMP generation) in CHO-PO cells transiently expressing rat VPAC1 or rat VPAC2 receptors.

| Substance | pIC50 (human VPAC2) | pIC50 (human PAC1 [1]) | pEC50 (human PAC1 [2]) | pEC50 (rat VPAC2 receptor) |
| --- | --- | --- | --- | --- |
| pituitary adenylate cyclase-activating polypeptide [PACAP-27] | 8.60 | – | – | – |
| vasoactive intestinal peptide [VIP] | – | < 6.00 | < 8.00 | 9.10 |

From patent publication US20080318845A1, “Selective Vpac2 Receptor Peptide Agonists” (priority 2004, published 2008)
